The compounds below were run against Recombinant heterodimeric HCV NS3/NS4A protease (strain 1a) (Hepatitis C virus genotype 1a, UniProt P27958) (assay: Spectrophotometric (continuous) assay for HCV protease inhibitory activity). Details: chromogenic ester substrate, 30° C., pH 6.5.
Type: biochemical

The chains behind the UniProt entries cited, without tags or fusion partners. Residues count along the entry.
UniProt P27958, 1027-1657: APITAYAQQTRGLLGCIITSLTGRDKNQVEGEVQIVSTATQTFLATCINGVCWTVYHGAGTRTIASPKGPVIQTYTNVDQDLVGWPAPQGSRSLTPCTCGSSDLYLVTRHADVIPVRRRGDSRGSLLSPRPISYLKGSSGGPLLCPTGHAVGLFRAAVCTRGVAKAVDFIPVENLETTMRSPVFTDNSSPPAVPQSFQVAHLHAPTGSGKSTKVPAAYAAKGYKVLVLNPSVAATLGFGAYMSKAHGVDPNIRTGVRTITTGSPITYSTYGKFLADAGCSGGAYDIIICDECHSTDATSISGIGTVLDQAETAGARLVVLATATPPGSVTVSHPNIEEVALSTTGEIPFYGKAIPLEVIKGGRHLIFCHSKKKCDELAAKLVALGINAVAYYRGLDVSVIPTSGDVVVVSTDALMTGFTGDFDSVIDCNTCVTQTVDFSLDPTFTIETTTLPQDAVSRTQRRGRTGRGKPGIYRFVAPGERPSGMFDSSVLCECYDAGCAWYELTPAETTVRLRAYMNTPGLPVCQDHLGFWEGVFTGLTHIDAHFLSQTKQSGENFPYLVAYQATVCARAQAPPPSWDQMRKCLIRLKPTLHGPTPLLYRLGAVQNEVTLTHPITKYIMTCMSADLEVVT
UniProt P27958, 1658-1711: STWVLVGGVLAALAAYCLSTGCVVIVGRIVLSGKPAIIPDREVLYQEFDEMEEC

First: CCCN(NC(=O)[C@@H]1[C@@H]2[C@H](CN1C(=O)[C@@H](NC(=O)NC1(CS(=O)(=O)C(C)(C)C)CCCCC1)C1(C)CCCCC1)C2(C)C)C(=O)N[C@@H](C)c1ccccc1 [Compound 1]
Second: CCCN(NC(=O)[C@@H]1[C@@H]2[C@H](CN1C(=O)[C@@H](NC(=O)N[C@H](CN(C)S(=O)(=O)c1ccccn1)C(C)(C)C)C1CCCCC1)C2(C)C)C(=O)N[C@@H](C)c1ccccc1 [Compound 7]
The Ki of the first is lower: < 200 nM for the first, 200 to 500 nM for the second. The first binds more tightly here.

`CCCN(NC(=O)[C@@H]1[C@@H]2[C@H](CN1C(=O)[C@@H](NC(=O)N[C@H](CN(C)S(C)(=O)=O)C(C)(C)C)C(C)(C)C)C2(C)C)C(=O)N[C@@H](C)c1ccccc1` [Compound 2] and `CCCN(NC(=O)[C@@H]1[C@@H]2[C@H](CN1C(=O)[C@@H](NC(=O)N[C@H](CN1C(=O)CC(C)(C)CC1=O)C(C)(C)C)C(C)(C)C)C2(C)C)C(=O)N[C@@H](C)c1ccccc1` [Compound 3] cannot be ordered by Ki: < 200 nM for the first, < 200 nM for the second.

`C[C@H](NC(=O)N(CC1CC1)NC(=O)[C@@H]1[C@@H]2[C@H](CN1C(=O)[C@@H](NC(=O)N[C@H](CN1C(=O)CC(C)(C)CC1=O)C(C)(C)C)C(C)(C)C)C2(C)C)c1ccccc1` [Compound 4] and `C[C@H](NC(=O)N(CC1CC1)NC(=O)[C@@H]1[C@@H]2[C@H](CN1C(=O)[C@@H](NC(=O)N[C@H](CN1C(=O)C3CCC(C3)C1=O)C(C)(C)C)C(C)(C)C)C2(C)C)c1ccccc1` [Compound 6] fall in the same range of Ki: 200 to 500 nM for the first, 200 to 500 nM for the second.

Going from `CCCN(NC(=O)[C@@H]1[C@@H]2[C@H](CN1C(=O)[C@@H](NC(=O)N[C@H](CN1C(=O)C3CCC(C3)C1=O)C(C)(C)C)C(C)(C)C)C2(C)C)C(=O)N[C@@H](C)c1ccccc1` [Compound 5] to `CCCN(NC(=O)[C@@H]1[C@@H]2[C@H](CN1C(=O)[C@@H](NC(=O)N[C@H](CN1C(=O)C3CCC(C3)C1=O)C(C)(C)C)C(C)(C)C)C2(C)C)C(=O)Nc1ccccc1` [Compound 12], the Ki rises from < 200 nM to > 500 nM. The first binds more tightly here.

`CCCN(NC(=O)[C@@H]1[C@@H]2[C@H](CN1C(=O)[C@@H](NC(=O)N[C@H](CN1C(=O)C3CCC(C3)C1=O)C(C)(C)C)C(C)(C)C)C2(C)C)C(=O)OC(C)(C)C` [Compound 8] and `CCCN(NC(=O)[C@@H]1[C@@H]2[C@H](CN1C(=O)[C@@H](NC(=O)N[C@H](CN1C(=O)C3CCC(C3)C1=O)C(C)(C)C)C(C)(C)C)C2(C)C)C(=O)NC(C)(C)C` [Compound 9] cannot be ordered by Ki: > 500 nM for the first, > 500 nM for the second.

`CCCN(NC(=O)[C@@H]1[C@@H]2[C@H](CN1C(=O)[C@@H](NC(=O)N[C@H](CN1C(=O)C3CCC(C3)C1=O)C(C)(C)C)C(C)(C)C)C2(C)C)C(=O)NC1CCCCC1` [Compound 10] and `CCCN(NC(=O)[C@@H]1[C@@H]2[C@H](CN1C(=O)[C@@H](NC(=O)N[C@H](CN1C(=O)C3CCC(C3)C1=O)C(C)(C)C)C(C)(C)C)C2(C)C)C(=O)NC1CC1` [Compound 11] cannot be ordered by Ki: > 500 nM for the first, > 500 nM for the second.

`CCCN(NC(=O)[C@@H]1[C@@H]2[C@H](CN1C(=O)[C@@H](NC(=O)N[C@H](CN1C(=O)C3CCC(C3)C1=O)C(C)(C)C)C(C)(C)C)C2(C)C)C(=O)CCc1ccccc1` [Compound 13] and `CCCN(NC(=O)[C@@H]1[C@@H]2[C@H](CN1C(=O)[C@@H](NC(=O)N[C@H](CN1C(=O)C3CCC(C3)C1=O)C(C)(C)C)C(C)(C)C)C2(C)C)C(=O)c1ccccc1` [Compound 14] cannot be ordered by Ki: > 500 nM for the first, > 500 nM for the second.

`CCCN(NC(=O)[C@@H]1[C@@H]2[C@H](CN1C(=O)[C@@H](NC(=O)N[C@H](CN1C(=O)C3CCC(C3)C1=O)C(C)(C)C)C(C)(C)C)C2(C)C)C(=O)C1CC1` [Compound 15] and `CCCN(NC(=O)[C@@H]1[C@@H]2[C@H](CN1C(=O)[C@@H](NC(=O)N[C@H](CN1C(=O)C3CCC(C3)C1=O)C(C)(C)C)C(C)(C)C)C2(C)C)C(C)=O` [Compound 16] cannot be ordered by Ki: > 500 nM for the first, > 500 nM for the second.
